Measurements as given in US20250074888A1, “PYRIDAZINE DERIVATIVES AS MODULATORS OF NLRP3 INFLAMMASOME AND RELATED METHODS” (Neumora Therapeutics, Inc., priority 2021, published 2025).

Amino acid sequences for entries named in this document (tags omitted).
UniProt Q96P20, whole entry: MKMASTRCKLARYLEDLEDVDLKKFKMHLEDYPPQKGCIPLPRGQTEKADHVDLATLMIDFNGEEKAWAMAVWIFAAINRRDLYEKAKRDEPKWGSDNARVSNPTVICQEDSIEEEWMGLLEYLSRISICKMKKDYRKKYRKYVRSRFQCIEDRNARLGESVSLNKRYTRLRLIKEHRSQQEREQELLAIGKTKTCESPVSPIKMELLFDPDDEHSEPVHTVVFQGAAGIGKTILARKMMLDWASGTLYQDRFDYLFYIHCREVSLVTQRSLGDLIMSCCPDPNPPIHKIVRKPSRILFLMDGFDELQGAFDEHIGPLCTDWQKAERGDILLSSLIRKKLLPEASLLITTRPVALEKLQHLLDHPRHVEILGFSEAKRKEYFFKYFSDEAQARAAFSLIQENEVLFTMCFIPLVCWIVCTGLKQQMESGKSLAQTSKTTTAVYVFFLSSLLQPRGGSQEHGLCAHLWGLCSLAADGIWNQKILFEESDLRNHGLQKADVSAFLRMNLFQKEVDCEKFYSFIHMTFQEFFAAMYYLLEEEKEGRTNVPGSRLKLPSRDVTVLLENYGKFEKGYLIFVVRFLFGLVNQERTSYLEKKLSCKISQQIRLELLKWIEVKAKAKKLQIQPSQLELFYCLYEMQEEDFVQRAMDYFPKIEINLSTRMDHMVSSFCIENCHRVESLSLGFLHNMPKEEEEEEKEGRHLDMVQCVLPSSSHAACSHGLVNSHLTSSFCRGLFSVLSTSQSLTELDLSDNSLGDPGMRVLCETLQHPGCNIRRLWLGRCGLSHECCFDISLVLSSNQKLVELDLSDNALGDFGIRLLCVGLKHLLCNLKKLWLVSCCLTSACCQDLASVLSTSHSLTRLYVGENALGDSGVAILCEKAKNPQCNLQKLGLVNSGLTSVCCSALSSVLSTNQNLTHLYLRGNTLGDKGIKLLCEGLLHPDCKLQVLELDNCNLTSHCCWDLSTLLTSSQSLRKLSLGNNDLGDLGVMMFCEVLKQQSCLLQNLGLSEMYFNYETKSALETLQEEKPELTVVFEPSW

How the values were obtained:
[1] = test system: IL-6; assay: IL-6 release from LPS-primed, nigericin-treated THP1 macrophages, Hu IL-6 AlphaLISA; conditions: read-out: IL-6 Activity; PMA-differentiated THP1, LPS 20 ng/ml 3 hrs, compound 1 hr, Nigericin 6.7 uM 3 hrs, supernatant
[2] = biological target: NLRP3 inflammasome (Homo sapiens, UniProt Q96P20); assay: NLRP3 inflammasome activation in THP1 macrophages (LPS priming, nigericin), IL-1β AlphaLISA; conditions: read-out: IL-1β Activity; PMA-differentiated THP1, LPS 20 ng/ml 3 hrs, compound 1 hr, Nigericin 6.7 uM 3 hrs, supernatant

- IC50 [1]: 5 to 10 µM
- IC50 [2]: > 1 µM
Compound: Cc1cc(-c2ccc(C(F)(F)F)cc2)nnc1N[C@@H]1CCCNC1
